Measured values reported in US10434198B2, “Radiopharmaceutical solutions with advantageous properties” (Sciencons AS, priority 2015, dated 2019).

Conditions: mouse, in vivo

For “TCMC-labeled trastuzumab: trastuzumab (Herceptin) monoclonal antibody conjugated with p-SCN-Bn-TCMC, scavenging ^212Pb in ^224Ra solution”, the “^224Ra biodistribution” value was “very similar to that found in the biodistribution of chelator free radium solution”.
